Source: US9249076B2, “Recyclable extractant compositions” (BUTAMAX ADVANCED BIOFUELS LLC, priority 2012, dated 2016)

Assay: Oil Stability Index (OSI), antioxidant activity in COFA, AOCS Cd 12b-92
Conditions: 110° C.; Crude COFA; dose 0.0020 Wt %

OSI: 5.45 h
Structure (SMILES): CCCCCCCCCCCCCCCC(=O)OC[C@H](O)[C@H]1OC(=O)C(O)=C1O [L-ascorbic acid 6-palmitate]
